Assay results: patent US20250136601A1 (priority 2022, published 2025)

Assay: in vivo
Details: male, C57, mouse, ip, 5 mg/kg

COc1ccccc1CCCN1CC[C@@H]2[C@H](C1)c1cccc3c1N2CCO3 (single isomer, unassigned) [Compound I-23]
Kp: 3.38
